According to patent publication US11779620B2 (priority 2020, dated 2023):

System: human PBMC cultures
Test: Induction of CD69 activation marker on immune cell subsets in PBMC cultures (Trametes versicolor study)
Type: cell-based
Conditions: 24 h, positive controls LPS 10 ng/mL, IL-2 100 IU/mL, mean±SD
Procedure: Peripheral venous blood was drawn from three healthy human donors upon written informed consent, as approval by the Sky Lakes Medical Center Institutional Review Board, Federalwide Assurance 2603. The blood was drawn into heparin vacutainer vials, and the peripheral blood mononuclear cells (PBMC) isolated using Lympholyte Poly (Cedarlane Labs, Burlington, Ontario, Calif.) by centrifugation for 35 min at 450 g. The PBMC were washed twice in PBS, counted, and the density adjusted to establish cultures with a cell density at 10^6/mL, using Roswell Park Memorial Institute 1640 medium containing penicillin-streptomycin and 10% heat-inactivated fetal bovine serum (Gibco, Thermo Fisher Scientific, Asheville, N.C.).
Serial dilutions of products or LPS were added to cultures at a volume of 20 μL, and cultures were then incubated at 37° C., 5% CO2 for 24 h. The highly inflammatory LPS from Salmonella enterica was used as a positive control for immune-cell activation at a dose of 10 ng/mL. In parallel, IL-2 was used as a positive control for natural killer (NK)-cell activation, at a concentration of 100 IU/mL. Untreated negative control cultures consisted of PBMC exposed to phosphate-buffered saline in the absence of test products. All treatments, including each dose of test product and each positive and negative control, were tested in triplicate. After 24 h, blood cells were isolated from each culture well and stained for 10 min with fluorochrome-labeled antibodies at the recommended concentration. PBMC were then fixed using 0.5% formalin. The fluorescence intensities for CD3, CD56, and CD69 were measured by flow cytometry, using an Attune acoustic-focusing flow cytometer (Thermo Fisher Scientific).
During data analysis, gating on forward and side scatter facilitated evaluation of the levels of CD69 expression on lymphocyte and monocyte subsets. The lymphocyte subpopulation was further analyzed for CD69 expression on CD3+ T lymphocytes, CD3+ CD56+ NKT lymphocytes, and CD3− CD56+ NK cells.

## interleukin-2 [IL-2]
  CD69 percent change compared to untreated control cultures, NK cells: 446±60.0%
  CD69 percent change compared to untreated control cultures, NKT cells: 150±25%
  CD69 percent change compared to untreated control cultures, T lymphocytes: 39±0.9%
